Target: CD3 on Jurkat cells and on PBMCs (UniProt P07766)
Assay: flow cytometry; Fab monomers remaining on PBMCs after D-biotin and washing, detected with fresh PE-labelled Strep-Tactin

Protein sequences, listed by entry. Tags and fused reporters are not part of them. Residues count along the entry.
UniProt P07766, 23-207: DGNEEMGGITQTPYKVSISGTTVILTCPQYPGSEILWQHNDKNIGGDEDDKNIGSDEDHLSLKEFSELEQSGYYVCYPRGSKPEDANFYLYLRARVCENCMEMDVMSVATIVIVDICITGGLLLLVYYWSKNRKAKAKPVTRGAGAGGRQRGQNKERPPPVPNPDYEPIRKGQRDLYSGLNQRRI

## anti-CD3 Fab fragment derived from antibody OKT3, heavy chain C-terminally fused to Twin-Strep-tag (monomeric Fab)
  % of cells within gate: 0.018%

From patent US20200017880A1
